## scFv variants of Ab-14 (light chain) against a SARS-CoV-2 spike peptide

Antigen: PDVDLGDISGINAS, a 14-residue peptide of the SARS-CoV-2 spike HR2 region.

The variants keep the heavy chain, the linker and the frameworks of Ab-14 (scFv order VH, a (GGGGS)3 linker, VL).
VH: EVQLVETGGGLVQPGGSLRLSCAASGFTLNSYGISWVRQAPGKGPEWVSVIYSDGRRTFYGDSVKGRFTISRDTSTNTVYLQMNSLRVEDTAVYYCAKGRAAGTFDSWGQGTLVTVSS
VL: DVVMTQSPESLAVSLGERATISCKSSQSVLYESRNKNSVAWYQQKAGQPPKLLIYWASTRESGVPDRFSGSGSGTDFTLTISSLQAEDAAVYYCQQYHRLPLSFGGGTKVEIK

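The starting antibody came from a phage panning campaign against this peptide. Designed CDR sequences, proposed from the first random library and measured here. Their group label is 14L_En_Gibbs (En: ensemble of fine-tuned language models; Gibbs: Gibbs sampling). The scFvs were displayed on barcoded MATa yeast, the peptide on MATalpha yeast. Mating (16 h, 30 °C) was followed by selection of diploids and sequencing of their barcodes. Read counts were normalised to the haploid input and turned into Kd by a linear fit to BCL2-family pairs of known affinity, for each replicate. Each pool was mated in six replicate cultures.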

Variants are written as CDR1, CDR2 and CDR3 of the light chain (limits as in the source). Parent: KSSQSVLYESRNKNSVA, WASTRES, QQYHRLPLS.
Numbers give log10(Kd / nM), so 0 is 1 nM and 3 is 1 µM. Smaller is tighter.
An entry "ND" has no value in the source: the pair was not observed among the diploids in that replicate. This suggests poor binding but is not conclusive.
Of ten entries with the parent sequence, four were seen in most replicates (averages 0.34 to 2.37), three in one and three in none, so single entries are noisy.
Background: pairings of all light chain designs with three empty control strains gave a value in 4% of cases (median 2.64, 5th percentile 1.59). Values in that range, when seen in few replicates, are hard to tell from nonspecific mating. The control count says in how many pairings with the empty strains this scFv gave a signal, with their mean in brackets.
The range of this assay differs from that of the first round, and the authors advise against merging the two.
The authors averaged sequences with at least three values out of six and counted those with two or fewer as poor binders.

CDR-L1 | CDR-L2 | CDR-L3 | replicates, log10 nM | empty controls
DVTVVDNGASKIQNSIA | HGVEKCD | QQYSRLPLA | 0.02 / 0.13 / -0.23 / -0.23 / -0.12 / -0.07 | 0/18
SLAMLLNQVYAYGSNIA | NAQVLVY | QQYYRLPLV | ND / ND / ND / ND / ND / 2.46 | 0/18
QLSLMLNDMDARMWNVA | EGNQLKA | QDYHRLPLH | ND / ND / ND / ND / ND / ND | 1/18 (1.41)
HLTEQNFDGERRAYNVA | AGVMHSY | QQYHRLPLM | 1.50 / 1.38 / 1.06 / 1.11 / 2.01 / 1.21 | 0/18
HVNHEQLDYKNYENNIA | HESQRLY | QQYSHLPLS | 0.67 / 0.35 / 0.35 / 0.30 / 0.41 / 0.43 | 3/18 (3.23)
RIQMGDFEGRTAWNSIA | DGEEIYR | QQYVRLPLY | 1.46 / 1.36 / 1.46 / 1.40 / 1.60 / 1.71 | 0/18
SVTRYTDENGLKMNSVA | DAAERMT | QQYHRLPLT | 0.01 / -0.03 / -0.21 / -0.08 / -0.04 / -0.09 | 1/18 (2.29)
IIEQGEYEQEQHKNAIA | SGHERMR | QQYYKLPLV | 0.67 / 0.61 / 0.52 / 0.83 / 0.69 / 0.75 | 2/18 (3.40)
KFQQESNNMNDNQNSVA | DESMVEY | QHYWRLPLT | ND / ND / ND / ND / ND / ND | 0/18
KVQYQLAYSQAHTNNVA | DASVVCA | QQYQRLPIG | 0.80 / 0.89 / 0.88 / 0.81 / 0.41 / 1.04 | 0/18
SLIPFDNQIMKGTNNIA | HTSVRAS | QQYMRLPFV | 0.23 / 0.00 / 0.12 / 0.10 / 0.24 / 0.45 | 0/18
KVSQGIFDGERNSHSIA | EVTELCT | QQYSRLPLE | 0.45 / 0.72 / 0.46 / 0.19 / 0.33 / 0.73 | 2/18 (2.47)
KIQDNLGTLMEQINSVA | NSEEIVQ | QSYFRLPLS | 1.03 / 0.51 / 0.73 / 0.43 / 0.75 / 0.70 | 0/18
MIAGSLESQEANQAPVA | SATCKEP | QQYSRLPLM | 1.22 / 1.39 / 0.84 / 1.21 / 1.82 / 1.25 | 1/18 (3.00)
RYQMDDNIGKGARNNVA | DGAEVRM | QQYARLPLL | 0.40 / 0.22 / 0.26 / 0.58 / 0.29 / 0.96 | 0/18
MITEGLLGENKNSSNIA | SQNIKTA | QQYQRLPLT | 1.05 / 1.43 / 0.90 / 1.03 / 1.40 / 1.30 | 0/18
NFGQKMALYTGDRYSIA | DATVEAD | QQYSRLPIT | 0.56 / 0.97 / 0.70 / 1.08 / 0.95 / 0.71 | 0/18
RLMGWGADQIQHANSVA | DRDEVDM | QQYAHLPLS | 1.54 / ND / 1.43 / ND / 1.44 / 2.51 | 1/18 (3.33)
HLSDFLSYGKDLQAAVA | GVQTRMT | QQYARLPLL | 0.20 / 0.39 / 0.28 / 0.27 / 0.47 / 0.44 | 3/18 (2.51)
EMLYMDNSVGLQKDSIA | EAEQVME | QQYFRLPLV | 0.95 / 1.01 / 0.86 / 1.01 / 0.96 / 0.69 | 1/18 (2.34)
MLTISGDETHEKAFSIA | NATNKAY | QQYARLPLT | 1.18 / 1.21 / 0.96 / 1.09 / 1.01 / 1.48 | 1/18 (2.50)
RVQLNSGHIDMHWYSIA | SASIRAD | QQYFRLPLA | 1.23 / 0.96 / 0.62 / 0.89 / 1.11 / 1.09 | 1/18 (1.73)
KLQQESDNMNDMQNSVA | EQSMVQY | QHYWRLPLT | ND / ND / ND / ND / ND / ND | 0/18
LGNYEDQDDDRGMNNIA | NGDTKML | QQYHRLPLS | 0.41 / 0.01 / -0.39 / -0.09 / -0.23 / 0.58 | 0/18
RIAEQYFEYMHNINNVA | EAECKQY | QQYAHLPLL | 1.83 / 0.26 / 0.78 / 0.06 / 0.97 / 0.64 | 0/18
NLTTGYRQGALNTDNVA | HGNMREA | QQYYRLPLS | -0.02 / -0.18 / -0.28 / -0.24 / -0.17 / 0.06 | 1/18 (2.72)
MLDNCQAGYYQKNNNVA | EMNMRCY | QQYGRLPLM | 1.77 / 2.73 / ND / 2.71 / ND / ND | 0/18
NLNDSPMYAQIHKDAIA | QETQRNA | QQYAKLPLS | 0.27 / 0.52 / 0.69 / 0.47 / 0.49 / 0.45 | 0/18
TITGMVEEIGTTMKNIA | EGEFRCM | QQYSRLPLS | ND / 2.21 / 1.87 / 1.90 / 2.08 / 2.02 | 0/18
KLAQGIYEPWRHSHNIA | EASHVCD | QQYERLPLE | 1.73 / 1.94 / 1.59 / 0.87 / 1.52 / 1.27 | 1/18 (2.20)
KIDMSLNYESHALNSIA | EEVMHTA | QQYDRLPLF | ND / ND / ND / ND / ND / ND | 0/18
TVKMELEMFAQDKHSVA | EAVERES | QQYHRLPLG | 1.39 / 1.10 / 0.41 / 0.91 / 0.87 / 1.13 | 1/18 (2.92)
DMTVVDNGASKIQNSVA | HGVEKCD | QQYSRLPLA | 0.68 / -0.05 / 0.15 / -0.32 / -0.15 / -0.32 | 0/18
KMTEQLLNGEREPSNIA | AQDIGSD | QQYHHLPLI | 1.55 / 1.43 / 1.10 / 1.11 / 1.35 / 1.61 | 2/18 (3.11)
MFEGYNTEGEANNNNVA | DHNCGER | QQYYRLPLA | ND / ND / ND / ND / ND / ND | 0/18
NMNVGANFGKNQEQAIA | EVEDRES | QQYARLPLT | 0.92 / 0.65 / 0.91 / 0.66 / 0.80 / 0.79 | 2/18 (2.94)
MLRFDITDGQKNWNNIA | ETSELGA | QQYAHLPLG | 0.54 / 0.34 / 0.71 / 0.59 / 0.20 / 0.73 | 2/18 (2.49)
HMNHEYLDYKNYENNIA | HGSQRLY | QQYSHLPLS | 0.63 / 0.16 / 0.71 / 0.34 / 0.46 / 0.60 | 0/18
RLTQQMYGFNIHANAIA | SGKERYW | QQYARLPLS | 1.16 / ND / ND / ND / 2.36 / 2.70 | 0/18
QMGYALFHEDAKKKSIA | ENDVRVY | QQYAKLPLT | 0.89 / 1.08 / 0.97 / 0.56 / 0.90 / 0.82 | 1/18 (2.49)
NITQQGDAMGDQRNNVA | NGETLEH | QQYAHLPLL | 1.19 / 0.93 / 1.30 / 0.91 / 0.76 / 0.87 | 1/18 (2.47)
KVAQGIYEPKRHSHNIA | EVSHLCD | QQYARLPLE | 0.71 / 0.96 / 0.89 / 0.88 / 0.80 / 1.30 | 1/18 (2.27)
QLERDALWGANYDYSVA | AQDVALP | QQYFRLPLI | 1.22 / 2.23 / ND / ND / ND / ND | 0/18
LLWQDMYNGRNQANAVA | EGNILAN | QQYARLPFS | 0.67 / 0.60 / 0.50 / 0.42 / 0.66 / 0.52 | 1/18 (3.06)

The first 5 variants above that were never detected:

| CDR-L1 | CDR-L2 | CDR-L3 | replicates, log10 nM | empty controls |
|---|---|---|---|---|
| QLSLMLNDMDARMWNVA | EGNQLKA | QDYHRLPLH | ND / ND / ND / ND / ND / ND | 1/18 (1.41) |
| KFQQESNNMNDNQNSVA | DESMVEY | QHYWRLPLT | ND / ND / ND / ND / ND / ND | 0/18 |
| KLQQESDNMNDMQNSVA | EQSMVQY | QHYWRLPLT | ND / ND / ND / ND / ND / ND | 0/18 |
| KIDMSLNYESHALNSIA | EEVMHTA | QQYDRLPLF | ND / ND / ND / ND / ND / ND | 0/18 |
| MFEGYNTEGEANNNNVA | DHNCGER | QQYYRLPLA | ND / ND / ND / ND / ND / ND | 0/18 |

Data: MIT Lincoln Laboratory AlphaSeq set, Li et al. 2023, doi:10.1038/s41467-023-39022-2, as distributed in FLAb.